# Test results reported in PubChem BioAssay AID1645871.
# Conditions: pampa; pH 5.0; 30.0 min; 50.0 µM
structure (smiles),measurement,value
CCN(CC)CCNC(=O)c1c(C)[nH]c(/C=C2\C(=O)Nc3ccc(F)cc32)c1C,Papp,53.9 ×10⁻⁶ cm/s
